One may read the IC50 as the concentration at which inhibition is half-maximal. A word on the inhibition: it is the percentage by which the read-out fell short of the control. Broadly, the Ki is the dissociation constant of the complex between target and ligand, obtained from inhibition or displacement. A low value points to higher affinity. As usually defined, the EC50 is the concentration that produces a half-maximal response. Read a low EC50 as greater potency.

Chains of the proteins cited; added tags and fusions are not shown. Lines headed by an entry give the natural chain unless they say otherwise; changes in a name come on top. Residues count along the entry.
UniProt P22411: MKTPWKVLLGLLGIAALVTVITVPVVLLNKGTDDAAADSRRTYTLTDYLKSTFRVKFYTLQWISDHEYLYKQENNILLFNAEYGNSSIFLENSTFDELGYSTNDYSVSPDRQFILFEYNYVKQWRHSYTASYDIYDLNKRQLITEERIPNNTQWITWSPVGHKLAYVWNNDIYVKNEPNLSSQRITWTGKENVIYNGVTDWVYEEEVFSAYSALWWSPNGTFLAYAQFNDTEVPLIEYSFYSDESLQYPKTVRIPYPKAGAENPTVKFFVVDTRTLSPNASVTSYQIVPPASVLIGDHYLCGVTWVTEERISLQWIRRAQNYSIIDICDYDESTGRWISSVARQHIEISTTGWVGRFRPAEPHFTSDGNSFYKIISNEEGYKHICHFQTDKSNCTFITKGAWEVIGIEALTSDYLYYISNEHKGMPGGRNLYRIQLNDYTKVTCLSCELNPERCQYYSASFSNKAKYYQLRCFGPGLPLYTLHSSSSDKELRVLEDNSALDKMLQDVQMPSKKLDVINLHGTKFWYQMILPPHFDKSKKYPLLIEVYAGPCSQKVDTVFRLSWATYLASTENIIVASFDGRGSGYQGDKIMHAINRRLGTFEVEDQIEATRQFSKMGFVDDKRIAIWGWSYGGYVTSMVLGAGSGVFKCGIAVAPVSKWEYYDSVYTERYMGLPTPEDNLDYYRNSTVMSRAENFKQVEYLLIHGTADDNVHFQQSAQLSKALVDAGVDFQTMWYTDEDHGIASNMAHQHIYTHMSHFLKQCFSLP
UniProt P14740, 37-767 limits assumed: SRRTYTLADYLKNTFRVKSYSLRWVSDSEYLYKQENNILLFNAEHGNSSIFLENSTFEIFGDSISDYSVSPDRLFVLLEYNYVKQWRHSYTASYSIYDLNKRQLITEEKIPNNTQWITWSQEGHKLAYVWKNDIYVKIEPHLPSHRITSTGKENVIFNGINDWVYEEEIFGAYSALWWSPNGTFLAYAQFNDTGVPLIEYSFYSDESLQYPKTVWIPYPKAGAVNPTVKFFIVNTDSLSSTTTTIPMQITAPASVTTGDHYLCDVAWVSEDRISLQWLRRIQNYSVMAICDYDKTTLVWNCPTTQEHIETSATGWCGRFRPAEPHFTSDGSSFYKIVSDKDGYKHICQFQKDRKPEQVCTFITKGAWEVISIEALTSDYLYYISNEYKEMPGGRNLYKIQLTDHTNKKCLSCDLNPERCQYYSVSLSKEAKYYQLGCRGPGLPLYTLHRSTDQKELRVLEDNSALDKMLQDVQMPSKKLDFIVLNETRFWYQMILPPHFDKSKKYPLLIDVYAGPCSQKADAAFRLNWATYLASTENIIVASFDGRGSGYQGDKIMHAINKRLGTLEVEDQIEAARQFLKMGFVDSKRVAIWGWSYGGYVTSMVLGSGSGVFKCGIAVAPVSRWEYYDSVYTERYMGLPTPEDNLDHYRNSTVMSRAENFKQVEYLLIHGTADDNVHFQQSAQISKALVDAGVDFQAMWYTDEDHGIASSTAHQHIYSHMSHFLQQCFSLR

These results are taken from patent publication US20030135023A1, “Peptide structures useful for competitive modulation of dipeptidyl peptidase IV catalysis” (priority 2001, published 2003).

Test [1] concerns the target T1, purified porcine DP IV (Sus scrofa, UniProt P22411). The test can be described thus: Determination of IC50-values, Gly-Pro-pNA cleavage by DP IV. The settings on record: Gly-Pro-pNA 0.4 mM, HEPES pH 7.6, 30° C. Format: biochemical. On the procedure:
(§1) 100 μl inhibitor stock solution were mixed with 100 μl buffer (HEPES pH 7.6) and 50 μl substrate (Gly-Pro-pNA, final concentration 0.4 mM) and preincubated at 30° C. Reaction was started by addition of 20 μl purified porcine DP IV. Formation of the product pNA was measured at 405 nm over 10 min using the HTS 7000 Plus plate reader (Perkin Elmer) and slopes were calculated. The final inhibitor concentrations ranged between 1 mM and 30 nM.
For calculation of IC50-values GraFit 4.0.13 (Erithacus Software) was used.

A further test concerns the target T2, plasma DP IV (Rattus norvegicus, UniProt P14740).
T2 construct: The assay mixture consisted of 80 μl reagent and 20 μl plasma; from tissue; host or cells: plasma of Wistar rats
Put plainly: Plasma DP IV activity after intravasal and oral administration in Wistar rats. The format is in vivo. The conditions noted are these: for DP IV-AUC0-20 min / lowest plasma DP IV activity: NS. On the procedure:
Rats with intact catheter function were given the test substances intravasal (intraarterial) or oral, respectively, in random order (N=3 Wistar rats in each group). As positive control, […]. isoleucine thiazolidine*fumarate were administered intravasal.
After overnight fasting, 100 μl samples of heparinized arterial blood were collected at −30, −5, and 0 min into ice-cooled Eppendorf tubes (see below). The test substances were dissolved freshly in 1.0 ml saline (0.154 mol/l) and were given at 0 min either oral via a feeding tube ([…], 75 mm; Fine Science Tools, Heidelberg, Germany) or intravasal. For the intravasal route, the catheter was immediately flushed with 30 μl saline and an additional 1 ml of saline was given orally via the feeding tube.
Arterial blood samples were taken thereafter at 5, 10 (only in a limited number of experiments), 20, 40, 60 and 120 min from the carotid catheter of the conscious unrestrained rats and were always given into ice cooled Eppendorf tubes (Eppendorf-Netheler-Hinz, Hamburg, Germany) filled with 10 μl 1 M citrate buffer pH 3.0 for prevention of further hydrolysis of tripeptides by plasma DP IV activity. Eppendorf tubes were centrifuged immediately (12000 rpm for 2 min, Hettich Zentrifuge EBA 12, Tuttlingen; Germany): The plasma fractions were store on ice until analysis or were deeply frozen at −20 ° C. until analysis.
Plasma DP IV activity: The assay mixture consisted of 80 μl reagent and 20 μl plasma. Kinetic measurements of the formation of the yellow product 4-nitroaniline were performed at 390 nm for 1 min at 30° C. after 2 min pre-incubation at the same temperature. The activity was expressed as arbitrary units [AU] and DP IV activity [mU/ml].
The absolute values of plasma DP IV activity, the relative change of plasma DP IV activity and the time and extent of maximal inhibition were calculated. Data presentation included the presentation of area under the curve (AUC), which was used for evaluation of extent of inhibition of plasma DP IV activity during the two hours of observation. AUC was calculated using the trapezoidal rule.
To compare relative changes of parameters under the conditions of different initial values of DP IV activity an uniform standardised mean (values) was set up at the beginning of the test (see Figures and Tables).
Statistical evaluations were performed with Microsoft Excel® 97. All variables are presented as mean and standard deviation (SD). Treatment groups were compared by Student's t-test, within-group changes by paired t-test. Two-tailed values of p<0.05 were considered significant.

The target in test [2] is T1, purified porcine DP IV. Put plainly: Determination of Ki-values, Gly-Pro-pNA cleavage by DP IV. Format: biochemical. The settings on record: Gly-Pro-pNA 0.05-0.4 mM. On the procedure: as §1
Calculations were performed using the GraFit Software.

Test [3] concerns the target T3, PEPT1 (Homo sapiens, UniProt P46059).
T3 construct: expressed in transfected cells; host or cells: transgenic yeast cells
T3 sequence (P46059 1-708): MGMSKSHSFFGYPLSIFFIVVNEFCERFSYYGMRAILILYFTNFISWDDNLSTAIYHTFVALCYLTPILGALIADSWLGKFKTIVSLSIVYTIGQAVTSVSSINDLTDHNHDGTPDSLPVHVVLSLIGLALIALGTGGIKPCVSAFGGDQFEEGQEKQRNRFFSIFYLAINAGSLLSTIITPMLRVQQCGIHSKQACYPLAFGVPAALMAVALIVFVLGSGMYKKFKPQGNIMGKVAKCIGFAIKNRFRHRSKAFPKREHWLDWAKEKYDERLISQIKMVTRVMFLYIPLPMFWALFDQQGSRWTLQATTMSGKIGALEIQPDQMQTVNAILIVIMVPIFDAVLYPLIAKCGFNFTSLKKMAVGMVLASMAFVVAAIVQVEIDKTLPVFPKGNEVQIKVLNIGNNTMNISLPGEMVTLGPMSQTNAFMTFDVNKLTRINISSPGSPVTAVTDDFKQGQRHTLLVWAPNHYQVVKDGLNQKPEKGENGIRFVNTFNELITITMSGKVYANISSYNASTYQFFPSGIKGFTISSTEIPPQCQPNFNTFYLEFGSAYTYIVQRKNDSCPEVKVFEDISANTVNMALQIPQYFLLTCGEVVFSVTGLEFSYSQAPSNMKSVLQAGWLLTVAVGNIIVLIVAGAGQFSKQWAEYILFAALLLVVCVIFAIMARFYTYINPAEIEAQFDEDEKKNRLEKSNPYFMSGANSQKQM
The test can be described thus: Electrophysiological analysis of transport currents in Xenopus oocytes expressing PEPT1. The format is cell-based, mammalian. The settings on record: transport current in Xenopus oocytes relative to 5 mM Gly-Gln. The source says:
(§2) For the analysis o the interaction of the inhibitors of prolyl-specific proteases with the mammalian peptide transporters two assay systems were used. First, all test compounds were submitted to the competition assay with transgenic yeast cells to determine the dose-dependent displacement (EC50 values) of the radiolabeled tracer dipepitde from the substrate binding site. […] As the level of functional expression varies in oocytes, each test compound was compared in the same oocyte with the current elicited by 5 mM of the dipeptide glycyl-L-glutamine (Gly-Gln). Currents of test compounds are therefore given relative to that by Gly-Gln as %I Gly-Gin, expressed as residual uptake in table 10.

Test [4] deals with T4, PEPT2 (Homo sapiens, UniProt Q16348).
T4 construct: expressed in transfected cells; host or cells: transgenic yeast cells
T4 sequence (Q16348 1-729): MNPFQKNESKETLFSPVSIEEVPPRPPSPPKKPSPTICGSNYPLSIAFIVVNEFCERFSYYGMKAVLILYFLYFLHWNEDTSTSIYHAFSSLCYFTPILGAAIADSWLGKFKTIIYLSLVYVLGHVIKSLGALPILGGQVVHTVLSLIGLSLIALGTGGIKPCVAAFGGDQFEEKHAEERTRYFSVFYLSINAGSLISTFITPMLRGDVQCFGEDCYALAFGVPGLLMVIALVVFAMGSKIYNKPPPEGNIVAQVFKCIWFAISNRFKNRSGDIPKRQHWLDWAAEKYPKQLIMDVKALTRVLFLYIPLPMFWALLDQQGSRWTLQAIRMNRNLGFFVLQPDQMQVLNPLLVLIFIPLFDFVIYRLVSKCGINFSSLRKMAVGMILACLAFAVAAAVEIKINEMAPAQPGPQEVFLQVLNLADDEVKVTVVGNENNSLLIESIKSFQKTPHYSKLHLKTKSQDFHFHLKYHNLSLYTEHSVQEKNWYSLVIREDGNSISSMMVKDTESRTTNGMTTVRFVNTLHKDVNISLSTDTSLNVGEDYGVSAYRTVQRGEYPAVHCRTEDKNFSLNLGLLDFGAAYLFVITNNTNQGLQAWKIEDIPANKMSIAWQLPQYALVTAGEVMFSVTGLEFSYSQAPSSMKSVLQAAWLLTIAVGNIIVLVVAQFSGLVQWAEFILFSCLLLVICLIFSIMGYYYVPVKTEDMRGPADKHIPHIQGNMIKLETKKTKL
Put plainly: Competition assay with transgenic yeast cells, displacement of radiolabeled tracer dipeptide, PEPT2. Format: binding, mammalian.
Description: as §2

Test [5] deals with T4, PEPT2. Put plainly: Electrophysiological analysis of transport currents in Xenopus oocytes expressing PEPT2. Format: cell-based, mammalian. The conditions noted are these: transport current in Xenopus oocytes relative to 5 mM Gly-Gln.
Description: as §2

Test [6] concerns the target T3, PEPT1. The test can be described thus: Competition assay with transgenic yeast cells, displacement of radiolabeled tracer dipeptide, PEPT1. The format is binding, mammalian.
Description: as §2

For the compound `CC(C)C[C@H](NC(=O)[C@@H]1CCCN1C(=O)[C@@H](N)C(C)C)C(=O)O` [Diprotin B, Val-Pro-Leu], at purified porcine DP IV [1], the midpoint of inhibition, the IC50, lay at 55.4 µM. Further, the “DP IV-AUC0-20 min” value on plasma DP IV (intravasal 10 mg/kg b.w.) was −34±6 mU·min·ml^−1; on plasma DP IV (intravasal 30 mg/kg b.w.), −10±10 mU·min·ml^−1; on plasma DP IV (intravasal 100 mg/kg b.w.), −54±54 mU·min·ml^−1. In addition, the “lowest plasma DP IV activity” value was 26.2±8.0 mU/ml at plasma DP IV (intravasal 10 mg/kg b.w., at 5 min) and 21.8±9.8 mU/ml on plasma DP IV (intravasal 30 mg/kg). Besides, on plasma DP IV (intravasal 100 mg/kg b.w., p<0.05 vs. 0 min), the “plasma DP IV activity at 5 min” value amounted to 10.4±3.2 mU/ml. Further, the “time after administration at which the initial level of DP IV activity was restored / inhibition stopped” value on plasma DP IV (intravasal administration) is on record as 20 min. Further, the inhibition at 100 mg/kg on plasma DP IV (rat, iv, Wistar rats, i.v., 100 mg/kg, read-out: DPIV inhibition at tmax, i.v.) is 50%. In addition, on purified porcine DP IV [2], the inhibition constant Ki was 22.4 µM.
In turn, `CC[C@H](C)[C@H](N)C(=O)N1CCC[C@H]1C(=O)N[C@H](C(=O)O)C(C)C` [Ile−Pro-Val, Ile-Pro-Val] showed an IC50 on purified porcine DP IV [1] of 15.2 µM. For the same compound, the “PEPT1 Residual uptake % IGly-Gln” value on PEPT1 [3] was found to be 65 % IGly-Gln. Besides, the concentration giving a half-maximal response (EC50) was 172 ± 30 µM at PEPT2 [4] and 319 ± 40 µM on PEPT1 [6]. Also, on PEPT2 [5], the “PEPT2 Residual uptake % IGly-Gln” value is given as 200 % IGly-Gln. Further, the affinity at purified porcine DP IV [2] corresponds to a Ki of 5.25 µM.
Take `CC[C@H](C)[C@H](NC(=O)[C@@H]1CCCN1C(=O)[C@@H](N)CO)C(=O)O` [Ser-Pro-Ile]: the IC50 on purified porcine DP IV [1] was 281 µM.
`CC[C@H](C)[C@H](NC(=O)[C@@H]1CCCN1C(=O)[C@@H](N)Cc1ccccc1)C(=O)O` [Phe−Pro-Ile, Phe-Pro-Ile] returned an IC50 against purified porcine DP IV [1] of 62 µM. At purified porcine DP IV [2], this compound gave an inhibition constant Ki of 14.7 µM.
Turning to `CC[C@H](C)[C@H](NC(=O)[C@@H]1CCCN1C(=O)[C@@H](N)Cc1c[nH]c2ccccc12)C(=O)O` [Trp-Pro-Ile], at purified porcine DP IV [1], the IC50 is 317 µM.
Compound `CC(C)[C@H](N)C(=O)N1CCC[C@H]1C(=O)N[C@H](C(=O)O)C(C)C` [Val-Pro-Val] came in with an IC50 against purified porcine DP IV [1] of 16.4 µM. In addition, the inhibitory constant (Ki) at purified porcine DP IV [2] stood at 4.45 µM.
`CC[C@H](C)[C@H](NC(=O)[C@@H]1CCCN1C(=O)[C@@H](N)[C@@H](C)O)C(=O)O` [Thr-Pro-Ile]: half-maximal inhibition at purified porcine DP IV [1] (IC50) required 100 µM.
